{"sequences": {"note": "Amino acid sequences for entries named in this document (tags omitted). Residues count along the entry.", "UniProt A0A3Q1MB23, 1-1267": "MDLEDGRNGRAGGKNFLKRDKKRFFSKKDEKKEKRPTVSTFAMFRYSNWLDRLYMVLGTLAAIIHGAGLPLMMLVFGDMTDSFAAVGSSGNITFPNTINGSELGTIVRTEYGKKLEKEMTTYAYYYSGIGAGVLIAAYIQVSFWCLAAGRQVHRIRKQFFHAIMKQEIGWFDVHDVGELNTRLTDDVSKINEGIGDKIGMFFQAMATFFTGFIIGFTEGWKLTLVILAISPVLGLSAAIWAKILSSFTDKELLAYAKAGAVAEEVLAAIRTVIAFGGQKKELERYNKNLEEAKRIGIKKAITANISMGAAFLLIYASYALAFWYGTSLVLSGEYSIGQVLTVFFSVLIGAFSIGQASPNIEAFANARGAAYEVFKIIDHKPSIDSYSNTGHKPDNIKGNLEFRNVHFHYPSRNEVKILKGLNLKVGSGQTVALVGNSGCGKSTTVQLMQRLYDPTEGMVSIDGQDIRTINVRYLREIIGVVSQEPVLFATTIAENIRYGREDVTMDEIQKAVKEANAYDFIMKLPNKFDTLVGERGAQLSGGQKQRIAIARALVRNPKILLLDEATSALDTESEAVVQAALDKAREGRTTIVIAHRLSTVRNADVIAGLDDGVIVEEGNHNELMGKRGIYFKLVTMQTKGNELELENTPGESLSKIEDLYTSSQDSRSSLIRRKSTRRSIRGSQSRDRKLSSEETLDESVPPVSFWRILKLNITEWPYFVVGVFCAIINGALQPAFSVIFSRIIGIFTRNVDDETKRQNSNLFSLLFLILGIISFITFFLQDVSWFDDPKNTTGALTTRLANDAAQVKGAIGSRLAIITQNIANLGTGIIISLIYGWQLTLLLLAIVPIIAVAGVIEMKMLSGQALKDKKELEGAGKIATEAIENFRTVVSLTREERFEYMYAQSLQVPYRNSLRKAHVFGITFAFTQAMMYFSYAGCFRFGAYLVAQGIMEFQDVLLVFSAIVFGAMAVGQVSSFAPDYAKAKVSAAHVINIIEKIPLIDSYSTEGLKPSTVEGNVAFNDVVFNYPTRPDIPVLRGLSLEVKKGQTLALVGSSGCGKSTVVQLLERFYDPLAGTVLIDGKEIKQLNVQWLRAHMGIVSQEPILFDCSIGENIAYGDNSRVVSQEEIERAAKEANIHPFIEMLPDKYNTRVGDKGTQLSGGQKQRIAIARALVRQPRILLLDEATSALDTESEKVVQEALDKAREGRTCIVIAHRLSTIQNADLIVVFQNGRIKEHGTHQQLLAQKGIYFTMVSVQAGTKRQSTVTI"}, "source": "patent US6605638B1", "about": "“Use of branched chain fatty acids and derivatives thereof for inhibition of P-glycoprotein” (D-Pharm Limited, priority 2000, dated 2003)", "target": "P-glycoprotein (Bos taurus, UniProt A0A3Q1MB23)", "assay": "Vincristine transport/clearance across endothelial cell monolayers, in vitro BBB co-culture model", "format": "cell-based, bovine", "design": "P-glycoprotein is expressed in cultured endothelial cells; endogenous in cells; host or cells: primary bovine brain capillary endothelial cells, co-cultured with newborn rat astrocytes in the lower compartment", "details": "60 min"}
{"compound": "CC[C@]1(O)C[C@H]2CN(CCc3c([nH]c4ccccc34)[C@@](C(=O)OC)(c3cc4c(cc3OC)N(C=O)[C@H]3[C@@](O)(C(=O)OC)[C@H](OC(C)=O)[C@]5(CC)C=CCN6CC[C@]43[C@@H]65)C2)C1", "note": "[vincristine, [γ-^3H]Vincristine sulphate, reference compound]", "values": [{"measurement": "Percentage of vincristine transported across the endothelial cell monolayers", "setting": "Example 4, 50 nM vincristine without verapamil", "value": "6.76±0.44", "unit": "%"}, {"measurement": "Percentage of vincristine transported across the endothelial cell monolayers", "setting": "Example 5, vincristine without verapamil", "value": "1.46±0.21", "unit": "%"}]}
